Here are results for one molecule from patent US20240208984A1, “BIVALENT LIGANDS TO UNDERSTAND DIMERIZATION OF THE MU OPIOID RECEPTOR AND THE CHEMOKINE RECEPTOR CCR5 IN NEUROLOGICAL DISORDERS” (priority 2021, published 2024).

Sequences of proteins named here, by UniProt entry; tags and fusion partners are left off.
UniProt P42866, whole entry, looked up: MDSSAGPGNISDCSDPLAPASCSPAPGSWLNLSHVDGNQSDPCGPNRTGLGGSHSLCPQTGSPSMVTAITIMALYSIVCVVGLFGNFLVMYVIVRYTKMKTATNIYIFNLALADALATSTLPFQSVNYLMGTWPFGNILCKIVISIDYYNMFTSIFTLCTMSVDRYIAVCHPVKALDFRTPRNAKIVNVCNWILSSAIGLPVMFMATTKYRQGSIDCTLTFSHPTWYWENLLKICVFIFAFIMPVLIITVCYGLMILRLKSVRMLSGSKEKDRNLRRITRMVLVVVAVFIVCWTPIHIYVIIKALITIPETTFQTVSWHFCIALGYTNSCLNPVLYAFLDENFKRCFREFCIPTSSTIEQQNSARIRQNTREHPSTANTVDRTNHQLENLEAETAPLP

“And” between values parts separate entries of the source, which are not always exact repeats. Equal values may be shown once.

The experiment addresses mouse MOR (Mus musculus (Mouse), UniProt P42866). In words: [35S]GTPγS functional assay in mMOR-CHO. It is filed as biochemical. The conditions noted are these: [35S]GTPγS binding, mean ± SEM. Here is the method: MOR [^35S]GTPγS functional studies. The [^35S]GTPγS functional assay was carried out in mMOR-CHO cells to define the relative efficacy of these bivalent ligands to activate the MOR as previously illustrated.
[^35S]-GTPγS functional assays was conducted in the mouse MOR cell membrane used for the receptor binding assays. Membrane protein (10 μg) was incubated with varying concentrations of test compounds, GDP (15 μM), and 80 μM [35S]-GTPγS in assay buffer for 1 h at 30° C. Nonspecific binding was determined with 10 μM unlabeled GTPγS. […] After incubation, the bound radioactive ligand was separated from the free radioligand by filtration through a GF/B glass fiber filter paper and rinsed three times with ice-cold wash buffer (50 mM Tris-HCl, pH 7.2) using the Brandel harvester. The results were determined by utilizing a scintillation counter. All assays were determined in triplicate and repeated at least three times. […] Calcium Mobilization Assay in mMOR-CHO Cells
In general terms: Binding of GTPγS marks nucleotide exchange on a G protein.

Take `CC(C)c1nnc(CCNC(=O)COCC(=O)NCCCCCCCNC(=O)COCC(=O)NC2CC[C@@]3(O)[C@H]4Cc5ccc(O)c6c5[C@@]3(CCN4CC3CC3)[C@H]2O6)n1C1CC2CCC(C1)N2CC[C@H](NC(=O)C1CCC(F)(F)CC1)c1ccccc1` (stereo partly shown) [VZMC013]: the “% Emax of DAMGO” value is 9.22% and 9.22 ± 0.94^a %.
